Source: patent publication US10442819B2, “Tricyclic compounds as inhibitors of mutant IDH enzymes” (Merck Sharp & Dohme Corp., priority 2014, dated 2019)

By UniProt entry, the sequences of proteins in these tests, tags left out.
UniProt O75874, whole entry R132H: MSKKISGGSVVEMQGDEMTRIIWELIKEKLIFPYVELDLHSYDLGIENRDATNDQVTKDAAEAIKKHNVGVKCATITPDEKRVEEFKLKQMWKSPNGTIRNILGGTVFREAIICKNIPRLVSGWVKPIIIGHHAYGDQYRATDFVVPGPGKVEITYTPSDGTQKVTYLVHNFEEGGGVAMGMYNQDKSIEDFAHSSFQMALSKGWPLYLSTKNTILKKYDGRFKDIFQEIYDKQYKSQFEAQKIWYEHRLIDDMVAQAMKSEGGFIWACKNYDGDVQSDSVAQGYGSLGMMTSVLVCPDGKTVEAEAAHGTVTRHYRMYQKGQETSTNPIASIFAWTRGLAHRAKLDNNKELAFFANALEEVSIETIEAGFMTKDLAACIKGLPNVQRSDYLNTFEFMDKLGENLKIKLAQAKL

Molecular target: R132H mutant IDH1 enzyme (Homo sapiens (Human), UniProt O75874, R132H)
Assay: R132H IDH1 Enzymatic Assay
Assay type: biochemical
Conditions: R132H mutant IDH1 enzyme 1.5 nM final; luminescence readout; read-out: IC50

| Compound | IC50 [nM] |
| --- | --- |
| 4-{[8-(2,4-dioxan-2-yl)-5,11- dihydro-6H-pyrido[2,3- b][1,5]benzodiazepin-6- yl]carbonyl}cyclohexanone O-methyloxime [Example 393] | 98 |
| CC(C)O[C@H]1CC[C@H](C(=O)N2Cc3cccnc3Nc3ccc([C@@H]4CCO[C@H]4C)cc32)OC1 (mixture of isomers) [Example 529, ((2R,5S)-5-isopropoxytetrahydro-2H-pyran-2-yl)(8-((2S,3S and 2R,3R)-2-methyltetrahydrofuran-3-yl)-5H-benzo[b]pyrido[2,3-e][1,4]diazepin-6(11H)-yl)methanone] | 6 |
| CC(C)O[C@H]1CC[C@H](C(=O)N2Cc3cccnc3Nc3ccc(C4COCC4C)cc32)OC1 (mixture of isomers) [Example 532, ((2R,5S)-5-isopropoxytetrahydro-2H-pyran-2-yl)(8-(4-methyltetrahydrofuran-3-yl)-5,11-dihydro-6H-benzo[b]pyrido[2,3-e][1,4]diazepin-6-yl)methanone] | 5 |
| C[C@H]1CC(F)(F)CCC1C(=O)N1Cc2cccnc2Nc2ccc(N3CCC(C#N)CC3)cc21 (mixture of isomers) [Example 176, Racemic trans 1-{6-[(4,4-difluoro-2-methylcyclohexyl)carbonyl]-6,11-dihydro-5H-pyrido[2,3-b][1,5]benzodiazepin-8-yl}piperidine-4-carbonitrile] | 286 |
| CO[C@H]1CC[C@H](C(=O)N2Cc3cccnc3Nc3ccc(CN(C)C(C4CC4)C(F)(F)F)cc32)CC1 (relative stereo) [Example 5, 1-Cyclopropyl-2,2,2-trifluoro-N-({6-[(trans-4-methoxycyclohexyl)carbonyl]-6,11-dihydro-5H-pyrido[2,3-b][1,5]benzodiazepin-8-yl}methyl)-N-methylethanamine] | 283 |
| CO[C@H]1CC[C@@H](C(=O)N2Cc3cccnc3Nc3ccc(CN(C)C(C4CC4)C(F)(F)F)cc32)CC1 (relative stereo) [Example 6, 1-Cyclopropyl-2,2,2-trifluoro-N-({6-[(cis-4-methoxycyclohexyl)carbonyl]-6,11-dihydro-5H-pyrido[2,3-b][1,5]benzodiazepin-8-yl}methyl)-N-methylethanamine] | 151 |
| CO[C@H]1CC[C@H](C(=O)N2Cc3cccnc3Nc3ccc(C(N4CCCC4)C(F)(F)F)cc32)CC1 (relative stereo) [Example 7, 6-[(Trans-4-methoxycyclohexyl)carbonyl]-8-(2,2,2-trifluoro-1-pyrrolidin-1-ylethyl)-6,11-dihydro-5H-pyrido[2,3-b][1,5]benzodiazepine] | 182 |
| CO[C@H]1CC[C@@H](C(=O)N2Cc3cccnc3Nc3ccc(C(N4CCCC4)C(F)(F)F)cc32)CC1 (relative stereo) [Example 8, 6-[(Cis-4-methoxycyclohexyl)carbonyl]-8-(2,2,2-trifluoro-1-pyrrolidin-1-ylethyl)-6,11-dihydro-5H-pyrido[2,3-b][1,5]benzodiazepine] | 76 |
| C[C@H]1CC(F)(F)CC[C@@H]1C(=O)N1Cc2cccnc2Nc2ccc(-c3ccc(C(N)=O)nc3)cc21 (relative stereo) [Example 188, Trans 5-{6-[(4,4-difluoro-2-methylcyclohexyl)carbonyl]-6,11-dihydro-5H-pyrido[2,3-b][1,5]benzodiazepin-8-yl}pyridine-2-carboxamide] | 99 |
| CC(C)O[C@H]1CC[C@H](C(=O)N2Cc3cccnc3Nc3ccc(N4C[C@]5(C)C[C@H]4CO5)cc32)CC1 (relative stereo) [Example 349, 6-{[trans-4-(1-methylethoxy)cyclohexyl]car-bonyl}-8-[(1S,4S)-1-methyl-2-oxa-5-azabicyclo[2.2.1]hept-5-yl]-6,11-dihydro-5H-pyrido[2,3-b][1,5]benzodiazepine] | 17 |
| CC(C)O[C@H]1CC[C@H](C(=O)N2Cc3cccnc3Nc3ccc(C4COCCO4)cc32)OC1 (single isomer, unassigned) [Example 12] | 42 |
| CC(C)O[C@H]1CC[C@H](C(=O)N2Cc3cccnc3Nc3ccc(C4COCCO4)cc32)OC1 (single isomer, unassigned) [Example 13] | 58 |
| CC(C)O[C@H]1CC[C@H](C(=O)N2Cc3cccnc3Nc3ccc(C4CCOC4)cc32)OC1 (single isomer, unassigned) [Example 15] | 20 |
| CC(C)O[C@H]1CC[C@H](C(=O)N2Cc3cccnc3Nc3ccc(C4CCOC4)cc32)OC1 (single isomer, unassigned) [Example 16] | 19 |
| COCC(OC)c1ccc2c(c1)N(C(=O)[C@H]1CC[C@H](OC(C)C)CO1)Cc1cccnc1N2 (single isomer, unassigned) [Example 20] | 72 |
| COCC(OC)c1ccc2c(c1)N(C(=O)[C@H]1CC[C@H](OC(C)C)CO1)Cc1cccnc1N2 (single isomer, unassigned) [Example 21] | 77 |
| CC(C)O[C@H]1CC[C@H](C(=O)N2Cc3cccnc3Nc3ccc(C4OCCOC4C)cc32)OC1 (single isomer, unassigned) [Example 24] | 87 |
| CC(C)O[C@H]1CC[C@H](C(=O)N2Cc3cccnc3Nc3ccc(C4OCCOC4C)cc32)OC1 (single isomer, unassigned) [Example 25] | 45 |
| CC(C)O[C@H]1CCC(C(=O)N2Cc3cccnc3Nc3ccc(C4CCCOC4)cc32)OC1 (single isomer, unassigned) [Example 27] | 10 |
| CC(C)O[C@H]1CCC(C(=O)N2Cc3cccnc3Nc3ccc(C4CCCOC4)cc32)OC1 (single isomer, unassigned) [Example 28] | 7 |
| CC(C)O[C@H]1CC[C@H](C(=O)N2Cc3cccnc3Nc3ccc(C4COC5CC5O4)cc32)OC1 (single isomer, unassigned) [Example 29] | 36 |

| Compound | IC50 [nM] |
| --- | --- |
| CC(C)O[C@H]1CC[C@H](C(=O)N2Cc3cccnc3Nc3ccc(C4COC5CC5O4)cc32)OC1 (single isomer, unassigned) [Example 30] | 30 |
| CC(C)O[C@H]1CC[C@H](C(=O)N2Cc3cccnc3Nc3ccc(N4C[C@@H]5CC[C@H]4CO5)cc32)OC1 (single isomer, unassigned) [Example 40] | 17 |
| CC(C)O[C@H]1CC[C@H](C(=O)N2Cc3cccnc3Nc3ccc(N4C[C@H]5CC[C@@H]4CO5)cc32)OC1 (single isomer, unassigned) [Example 41] | 22 |
| CO[C@H]1CCN(c2ccc3c(c2)N(C(=O)[C@H]2CC[C@H](OC(C)C)CO2)Cc2cccnc2N3)[C@H](C)C1 (single isomer, unassigned) [Example 43] | 76 |
| CO[C@@H]1CCN(c2ccc3c(c2)N(C(=O)[C@H]2CC[C@H](OC(C)C)CO2)Cc2cccnc2N3)[C@H](C)C1 (single isomer, unassigned) [Example 44] | 35 |
| CO[C@@H]1CCN(c2ccc3c(c2)N(C(=O)[C@H]2CC[C@H](OC(C)C)CO2)Cc2cccnc2N3)[C@@H](C)C1 (single isomer, unassigned) [Example 45] | 72 |
| CO[C@H]1CCN(c2ccc3c(c2)N(C(=O)[C@H]2CC[C@H](OC(C)C)CO2)Cc2cccnc2N3)[C@@H](C)C1 (single isomer, unassigned) [Example 46] | 57 |
| CO[C@H]1CC[C@@H](C(=O)N2Cc3cccnc3Nc3ccc(N4CCOCC4)cc32)C[C@H]1C (single isomer, unassigned) [Example 97] | 94 |
| CO[C@@H]1CC[C@H](C(=O)N2Cc3cccnc3Nc3ccc(N4CCOCC4)cc32)C[C@@H]1C (single isomer, unassigned) [Example 98] | 469 |
| CO[C@@H]1CC[C@@H](C(=O)N2Cc3cccnc3Nc3ccc(N4CCOCC4)cc32)C[C@@H]1C(F)(F)F (single isomer, unassigned) [Example 99] | 61 |
| CO[C@H]1CC[C@@H](C(=O)N2Cc3cccnc3Nc3ccc(N4CCOCC4)cc32)C[C@H]1C(F)(F)F (single isomer, unassigned) [Example 100] | 75 |
| O=C([C@H]1CC[C@@H](O[C@H]2CC2(F)F)CC1)N1Cc2cccnc2Nc2ccc(N3CCOCC3)cc21 (single isomer, unassigned) [Example 104] | 75 |
| CO[C@H]1CC[C@@H](C(=O)N2Cc3cccnc3Nc3ccc(N4CCOCC4)cc32)[C@@H](C)[C@H]1C (single isomer, unassigned) [Example 108] | 505 |
| CO[C@@H]1CC[C@H](C(=O)N2Cc3cccnc3Nc3ccc(N4CCOCC4)cc32)[C@H](C)[C@@H]1C (single isomer, unassigned) [Example 109] | 488 |
| CO[C@@H]1CO[C@@](C)(c2ccc3c(c2)N(C(=O)[C@H]2CC[C@H](OC(C)C)CO2)Cc2cccnc2N3)C1 (single isomer, unassigned) [Example 142] | 26 |
| CO[C@H]1CO[C@](C)(c2ccc3c(c2)N(C(=O)[C@H]2CC[C@H](OC(C)C)CO2)Cc2cccnc2N3)C1 (single isomer, unassigned) [Example 143] | 82 |
| CC(C)O[C@@H]1CO[C@](C)(c2ccc3c(c2)N(C(=O)[C@H]2CC[C@H](OC(C)C)CO2)Cc2cccnc2N3)C1 (single isomer, unassigned) [Example 148] | 19 |
| CC(C)O[C@H]1CC[C@H](C(=O)N2Cc3cccnc3Nc3ccc([C@@]4(C)C[C@@H](OC(C)C)CO4)cc32)OC1 (single isomer, unassigned) [Example 149] | 75 |
| CC(C)O[C@H]1CC[C@H](C(=O)N2Cc3cccnc3Nc3ccc(N4CC5CCC4CO5)cc32)CC1 (single isomer, unassigned) [Example 191, 6-{[Trans-4-(1-methylethoxy)cyclohexyl]carbonyl}-8-(2-oxa-5-azabicyclo[2.2.2]oct-5-yl)-6,11-dihydro-5H-pyrido[2,3-b][1,5]benzodiazepine] | 39 |
| CC(C)O[C@H]1CC[C@H](C(=O)N2Cc3cccnc3Nc3ccc(N4CC5CCC4CO5)cc32)CC1 (single isomer, unassigned) [Example 192, 6-{[Trans-4-(1-methylethoxy)cyclohexyl]carbonyl}-8-(2-oxa-5-azabicyclo[2.2.2]oct-5-yl)-6, 11-dihydro-5H-pyrido[2,3-b][1,5]benzodiazepine] | 38 |
| COC1CCC(C(=O)N2Cc3cccnc3Nc3ccc(N4CC[C@@H](OC)C4)cc32)CC1 (single isomer, unassigned) [Example 205] | 270 |
